The target of one assay is Adenosine receptor A1 (Rattus norvegicus, UniProt P25099). Kind of assay: Binding affinity for adenosine A1 receptor as inhibition of 3[H]-R-PIA binding in rat brain. The class given is tissue-based.
In the next assay the target is Adenosine receptor A2a (Rattus norvegicus, UniProt P30543). As to the kind of experiment: Binding affinity for adenosine A2a receptor as inhibition of 3[H]-CGS 21680 binding in rat striatum. Type of assay: tissue-based.

By UniProt entry, the sequences of proteins in these tests, tags left out.
UniProt P25099, whole entry: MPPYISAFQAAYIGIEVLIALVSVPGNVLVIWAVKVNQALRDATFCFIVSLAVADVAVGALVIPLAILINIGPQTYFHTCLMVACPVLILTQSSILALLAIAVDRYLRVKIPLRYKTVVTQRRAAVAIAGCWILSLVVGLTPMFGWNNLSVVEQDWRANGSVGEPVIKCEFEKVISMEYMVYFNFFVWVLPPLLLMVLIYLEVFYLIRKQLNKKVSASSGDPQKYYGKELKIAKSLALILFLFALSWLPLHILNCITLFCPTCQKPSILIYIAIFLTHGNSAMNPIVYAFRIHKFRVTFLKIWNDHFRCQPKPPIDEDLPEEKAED
UniProt P30543, whole entry: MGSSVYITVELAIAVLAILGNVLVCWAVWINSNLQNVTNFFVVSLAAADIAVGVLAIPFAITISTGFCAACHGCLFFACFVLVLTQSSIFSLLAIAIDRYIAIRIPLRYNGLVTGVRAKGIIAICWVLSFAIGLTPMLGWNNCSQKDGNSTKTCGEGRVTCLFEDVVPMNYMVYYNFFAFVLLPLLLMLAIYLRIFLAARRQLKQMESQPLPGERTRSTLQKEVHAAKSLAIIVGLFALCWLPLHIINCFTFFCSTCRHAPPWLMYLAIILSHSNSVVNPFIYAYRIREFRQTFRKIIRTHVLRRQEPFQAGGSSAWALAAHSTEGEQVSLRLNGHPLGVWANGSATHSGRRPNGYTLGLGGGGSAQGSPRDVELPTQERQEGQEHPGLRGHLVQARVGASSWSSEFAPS

For `CNC(=O)[C@H]1O[C@@H](n2cnc3c(NCc4cccc(I)c4)nc(Cl)nc32)[C@H](O)[C@@H]1O` [NAMODENOSON], the Ki is 54 nM on Adenosine receptor A1 and 56 nM at Adenosine receptor A2a.

Values taken from ChEMBL document CHEMBL1130877, “The synthesis of new adenosine A3 selective ligands containing bioisosteric isoxazoles” (Bioorg Med Chem Lett, 1998).
